Earlier results, collected in US20120083599A1 (UNIVERSITY OF NOTTINGHAM, priority 2009, published 2012).

By UniProt entry, the sequences of proteins in these tests, tags left out. Residues count along the entry.
UniProt P02701, 25-152, species assumed: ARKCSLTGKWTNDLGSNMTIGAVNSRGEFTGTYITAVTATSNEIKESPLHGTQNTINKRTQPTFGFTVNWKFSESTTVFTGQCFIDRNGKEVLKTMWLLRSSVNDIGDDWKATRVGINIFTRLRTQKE

Molecular target: avidin (Gallus gallus, UniProt P02701)
Conditions: literature values; cited from earlier work

## N=C1N[C@H]2[C@H](CS[C@H]2CCCCC(=O)O)N1 [iminobiotin, Iminobiotin]
  Kd: ~0.01 nM
